Earlier results on 1 compound are cited in patent US12428399B2, “Non-hygroscopic crystalline salts of a pyrazole compound, and pharmaceutical compositions and use thereof” (Yissum Research Development Company of the Hebrew …, priority 2019, dated 2025).

By UniProt entry, the sequences of proteins in these tests, tags left out.
UniProt P50613, whole entry, species assumed: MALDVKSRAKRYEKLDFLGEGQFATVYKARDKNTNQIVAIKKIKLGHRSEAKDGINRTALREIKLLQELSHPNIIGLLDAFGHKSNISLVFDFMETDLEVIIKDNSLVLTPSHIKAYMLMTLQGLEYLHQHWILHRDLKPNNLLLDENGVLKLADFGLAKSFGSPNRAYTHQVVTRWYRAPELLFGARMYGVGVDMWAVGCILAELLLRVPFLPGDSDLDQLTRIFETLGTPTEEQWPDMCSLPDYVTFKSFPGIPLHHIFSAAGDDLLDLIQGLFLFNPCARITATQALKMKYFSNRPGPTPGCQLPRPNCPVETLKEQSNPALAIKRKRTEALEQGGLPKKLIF
UniProt P50750, whole entry, species assumed: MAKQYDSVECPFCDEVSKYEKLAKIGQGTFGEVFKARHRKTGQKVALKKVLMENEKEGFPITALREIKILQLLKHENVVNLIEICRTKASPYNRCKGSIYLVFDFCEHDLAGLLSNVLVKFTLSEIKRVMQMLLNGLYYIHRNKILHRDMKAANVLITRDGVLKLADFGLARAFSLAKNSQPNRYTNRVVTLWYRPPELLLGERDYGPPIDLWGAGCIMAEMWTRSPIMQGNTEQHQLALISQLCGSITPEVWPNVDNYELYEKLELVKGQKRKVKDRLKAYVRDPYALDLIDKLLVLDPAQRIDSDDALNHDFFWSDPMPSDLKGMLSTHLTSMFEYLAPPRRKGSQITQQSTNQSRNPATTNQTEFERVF

The target in one data set is CDK7 (Homo sapiens, UniProt P50613). The following applies: cited from earlier work.
In another data set the target is CDK9 (Homo sapiens, UniProt P50750). The following applies: cited from earlier work.

Structures are written as SMILES.

As for `Cn1ncc(-c2nc(N[C@H]3CC[C@H](N)CC3)ncc2Cl)c1CC1CC1` [the Compound, (1r,4r)-N^1-(5-chloro-4-(5-(cyclopropylmethyl)-1-methyl-1H-pyrazol-4-yl)pyrimidin-2-yl)cyclohexane-1,4-diamine], the CDK7 inhibition result at CDK7 was “inhibitor”. Besides, the CDK9 inhibition entry at CDK9 was “inhibitor”.
